Literature values, collected in PMC6186498 (Toxicology, 2018).

Tested on: kidney
Details: directly administered cysteine conjugates; acute, sub-acute and sub-chronic exposure; ref Birner et al. 1997; Shirai et al. 2012; Vaidya et al. 2003; cited from earlier work

SMILES: N[C@@H](CSC(Cl)=CCl)C(=O)O [DCVC, S-(1,2-dichlorovinyl)-cysteine]
- doses at which most studies reported kidney effects: above 10 mg/kg
